The list shows a part of the results, in another mix than the full data. Calls of active or inactive are those of the source. No stated cut-off is given here; in the data, active means inhibition above about 75%; inconclusive means no clear call, values can overlap the other calls; inactive means below that; tested in HMLE shEcad cells.
Experiment: cancer stem cell viability inhibitors, primary screen, luminescence (AID 2717)
Conditions: cancer stem cell-like cells viability, at 7.5 µM, stronger effect = higher value

Compound	inhibition
O=[N+]([O-])c1cc([N+](=O)[O-])c(-c2ccn[nH]2)s1	inactive: 10.4%
Cc1cc(C)cc(OP(C)(N)=O)c1 (configuration not stated)	inactive: 5.37%
Cc1c2c(nc3ccccc13)SC(C(Cl)Cl)C2 (configuration not stated)	inactive: 3.93%
Cc1cc(=O)[nH]c(N[N+](=O)[O-])n1	inactive: -4.05%
CCN(CC)CCCOC(=O)C(O)(c1ccccc1)c1ccccc1	inactive: -8.33%
COc1ccc2nc(NP(=O)(c3ccccc3)c3ccccc3)sc2c1	inactive: 4.86%
COc1cc(I)ccc1[As](=O)(O)O	inactive: -7.03%
COc1ccc(N/C(=N/P(=O)(N2CCOCC2)N2CCOCC2)N2CCOCC2)cc1	inactive: -9.07%
COP1(=S)c2c(C)nn(CCC#N)c2N=C(c2ccc(F)cc2)N1C (configuration not stated)	inactive: 5.83%
Cc1cccc(C)c1OP(C)(=O)Nc1ccc(SC(F)(F)F)cc1 (configuration not stated)	inactive: 41.7%
CP(=O)(Nc1ccc(SC(F)(F)F)cc1)Oc1ccc(Cl)cc1 (configuration not stated)	inactive: 43.2%
CP(=O)(Oc1ccccc1)OC(c1ccccc1)C(F)(F)F (configuration not stated)	inactive: -8.27%
O=C(COc1ccccc1)OC1CN2CCC1CC2 (configuration not stated)	inactive: 9.97%
CCc1ccc(OP(C)(=O)N2CCN(c3ccc([N+](=O)[O-])cc3)CC2)cc1 (configuration not stated)	inactive: 24.1%
O=C(Nc1ccncc1[N+](=O)[O-])c1ccc([N+](=O)[O-])cc1[N+](=O)[O-]	inactive: -9.92%
Cc1cc(C)cc(OP(C)(=O)Nc2ccc(SC(F)(F)F)cc2)c1 (configuration not stated)	inactive: 13.3%

Compound	inhibition
O=C(OC1CN2CCC1CC2)c1cccc([N+](=O)[O-])c1 (configuration not stated)	inactive: -15.1%
CCOP(C)(=S)SCC(=O)NC(C)C(=O)O (configuration not stated)	inactive: -18%
CCOC(=O)c1ccc(NP(C)(=O)Oc2ccc(OC)cc2)cc1 (configuration not stated)	inactive: -25.9%
CCOC(=O)c1ccc(NC(=O)C(C)(CCl)SC)cc1 (configuration not stated)	inactive: 4.18%
O=[N+]([O-])c1cc([N+](=O)[O-])c(O)c([N+](=O)[O-])c1.c1ccc(Oc2ccncc2)cc1	inactive: -5.39%
CCC(C)N(CC(C)C)C(=S)SC(NC(C)=O)C(Cl)(Cl)Cl (configuration not stated)	inactive: 17.9%
CP(=O)(Nc1ccccn1)Oc1ccc(Cl)cc1 (configuration not stated)	inactive: 4.46%
CCOC(=O)Nc1ccc([As](=O)(O)O)c(O)c1	inactive: -11.3%
Cc1cc(SC(NC(=O)c2ccccc2)C(Cl)(Cl)Cl)nc(C(C)C)n1 (configuration not stated)	inactive: -5.08%
CP(=S)(Nn1cnnc1)Oc1ccccc1 (configuration not stated)	inactive: -6.81%
CCOC(=O)Nc1cccc([As](=O)(O)O)c1	inactive: 3.65%
O=P(Nc1ccccn1)(c1cccc2ccccc12)c1cccc2ccccc12	inactive: -8.33%
Cc1cc(SC(NC=O)C(Cl)(Cl)Cl)ncn1 (configuration not stated)	inactive: -8.31%
COc1ccccc1OP(C)(=O)Nc1ccccc1 (configuration not stated)	inactive: -1.96%
CP(=O)(Nc1ccccc1Br)Oc1ccccc1 (configuration not stated)	inactive: 2.03%
O=[N+]([O-])c1ccc(Nc2ccc(Oc3ccc([N+](=O)[O-])cc3[N+](=O)[O-])cc2)c([N+](=O)[O-])c1	inactive: 15.2%
